Measured values as given in ChEMBL document CHEMBL6109136, “Discovery of the 2,3-Dihydrobenzopyrane-4-one as a Potent FTO Inhibitor against Obesity-Related Metabolic Diseases” (J Med Chem, 2025).
Calls of active or inactive are those of the source. The rule behind the calls is not given here.

The chains behind the UniProt entries cited, without tags or fusion partners.
UniProt Q9C0B1, whole entry, looked up: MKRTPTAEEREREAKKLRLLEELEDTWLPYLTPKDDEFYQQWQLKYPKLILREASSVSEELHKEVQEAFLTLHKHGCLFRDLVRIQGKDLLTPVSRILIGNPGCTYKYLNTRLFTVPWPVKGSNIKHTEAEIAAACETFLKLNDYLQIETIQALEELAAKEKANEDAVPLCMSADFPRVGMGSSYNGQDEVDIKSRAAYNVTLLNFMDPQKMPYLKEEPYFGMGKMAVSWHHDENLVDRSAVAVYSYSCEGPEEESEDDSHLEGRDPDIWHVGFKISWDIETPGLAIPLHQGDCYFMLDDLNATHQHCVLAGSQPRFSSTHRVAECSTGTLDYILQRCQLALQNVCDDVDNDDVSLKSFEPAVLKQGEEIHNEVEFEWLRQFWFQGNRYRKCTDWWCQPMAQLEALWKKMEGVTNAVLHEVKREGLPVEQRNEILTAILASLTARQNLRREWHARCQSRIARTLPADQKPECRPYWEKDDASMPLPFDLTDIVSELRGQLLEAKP

How the values were obtained:
Mus musculus [1] = assay: Anti-obesity activity in high-fat diet fed male DIO C57BL/J mouse model assessed as reduction in fasting blood glucose level at 40 to 160 mg/kg treated for 3 weeks; format: functional, organism-based; conditions: dose 40-160 mg/kg
HepG2 [2] = assay: Downregulation of PCK1 level in PA/OA-induced human HepG2 cells at 5 to 20 uM by Western blot analysis; format: functional, cell-based; conditions: dose 5-20 µM
HepG2 [3] = assay: Downregulation of G6PC expression in PA/OA-induced human HepG2 cells at 5 to 20 uM by RT-qPCR analysis; format: functional, cell-based; conditions: dose 5-20 µM
Mus musculus [4] = assay: Anti-obesity activity in high-fat diet fed DIO male C57BL/J mouse model assessed as reduction of adipocyte size at 40 to 160 mg/kg by H and E staining analysis; format: functional, organism-based; conditions: dose 40-160 mg/kg
Mus musculus [5] = assay: Anti-obesity activity in high-fat diet fed DIO male C57BL/J mouse model assessed as downregulation of PCK1 expression level in liver at 40 to 160 mg/kg treated for 9 weeks by RT-qPCR analysis; format: functional, organism-based; conditions: dose 40-160 mg/kg
Mus musculus [6] = assay: Anti-obesity activity in high-fat diet fed male DIO C57BL/J mouse model assessed as increase in glucose tolerance level at 40 to 160 mg/kg treated for 3 weeks; format: functional, organism-based; conditions: dose 40-160 mg/kg
Mus musculus [7] = species on record: Mus musculus; assay: Anti-obesity activity in high-fat diet fed male DIO C57BL/J mouse model assessed as reduction in fat mass to fat mass ratio measured for 9 weeks; format: functional, organism-based; conditions: dose 40-160 mg/kg
Mus musculus [8] = assay: Anti-obesity activity in high-fat diet fed DIO male C57BL/J mouse model assessed as downregulation of G6PC level in liver at 40 to 160 mg/kg treated for 9 weeks by Western blot analysis; format: functional, organism-based; conditions: dose 40-160 mg/kg
Mus musculus [9] = species on record: Mus musculus; assay: Anti-obesity activity in high-fat diet fed male DIO C57BL/J mouse model assessed as reduction in body weight treated for 9 weeks; format: functional, organism-based; conditions: dose 40-160 mg/kg
Mus musculus [10] = assay: Anti-obesity activity in high-fat diet fed DIO male C57BL/J mouse model assessed as downregulation of FOXO1 level in liver at 40 to 160 mg/kg treated for 9 weeks by Western blot analysis; format: functional, organism-based; conditions: dose 40-160 mg/kg
HepG2 [11] = assay: Cytotoxicity against human HepG2 cells at 20 uM incubated for 48 hrs by Calcein/PI staining based analysis; format: functional, cell-based
HepG2 [12] = assay: Binding affinity to 3xflag-6His-tagged FTO R96A/Y106A/S229A/D233/E234A mutant in human HepG2 cells assessed as protection against pronase-induced proteolysis at 1 to 100 uM incubated for 1 hr by DARTS assay; format: cell-based; conditions: dose 1-100 µM
HepG2 [13] = assay: Downregulation of G6PC level in PA/OA-induced human HepG2 cells at 5 to 20 uM by Western blot analysis; format: functional, cell-based; conditions: dose 5-20 µM
HepG2 [14] = assay: Downregulation of PCK1 expression in PA/OA-induced human HepG2 cells at 5 to 20 uM by RT-qPCR analysis; format: functional, cell-based; conditions: dose 5-20 µM
HepG2 [15] = assay: Downregulation of FOXO1 expression in PA/OA-induced human HepG2 cells at 5 to 20 uM by Immunofluorescence staining based confocal microscopic analysis; format: functional, cell-based; conditions: dose 5-20 µM
Mus musculus [16] = assay: Anti-obesity activity in high-fat diet fed DIO male C57BL/J mouse model assessed as upregulation of UCP1 in adipose tissue at 40 to 160 mg/kg by Western blot analysis; format: functional, organism-based; conditions: dose 40-160 mg/kg
Mus musculus [17] = assay: Anti-obesity activity in high-fat diet fed male DIO C57BL/J mouse model assessed as reduction in triglycerides level in serum at 40 to 160 mg/kg treated for 9 weeks; format: functional, organism-based; conditions: dose 40-160 mg/kg
Mus musculus [18] = assay: Anti-obesity activity in high-fat diet fed male DIO C57BL/J mouse model assessed as attenuation of hepatic steatosis at 40 to 160 mg/kg treated for 9 weeks by H and E staining analysis; format: functional, organism-based; conditions: dose 40-160 mg/kg
[19] = target: T1, Alpha-ketoglutarate-dependent dioxygenase FTO (Homo sapiens, UniProt Q9C0B1); assay: Binding affinity to 3xflag-6His-tagged wild-type FTO in human HepG2 cells assessed as protection against pronase-induced proteolysis at 1 to 100 uM incubated for 1 hr by DARTS assay; format: cell-based; conditions: dose 1-100 µM
HepG2 [20] = assay: Reversal of lipid accumulation in PA/OA-induced human HepG2 cells at 5 to 20 uM measured after 36 hrs by Oil Red O staining based analysis; format: functional, cell-based; conditions: dose 5-20 µM
Mus musculus [21] = assay: Anti-obesity activity in high-fat diet fed male DIO C57BL/J mouse model assessed as reduction in low-density lipoprotein cholesterol level in serum at 40 to 160 mg/kg treated for 9 weeks; format: functional, organism-based; conditions: dose 40-160 mg/kg
Mus musculus [22] = assay: Anti-obesity activity in high-fat diet fed male DIO C57BL/J mouse model assessed as reduction in total cholesterol level in serum at 40 to 160 mg/kg treated for 9 weeks; format: functional, organism-based; conditions: dose 40-160 mg/kg
Mus musculus [23] = assay: Anti-obesity activity in high-fat diet fed male DIO C57BL/J mouse model assessed as increase in body temperature around brown adipose tissue (BAT) at 40 to 160 mg/kg treated for 3 weeks; format: functional, organism-based; conditions: dose 40-160 mg/kg
HepG2 [24] = assay: Reversal of lipid accumulation in PA/OA-induced human HepG2 cells at 5 to 20 uM measured after 36 hrs by colorimetric assay; format: functional, cell-based; conditions: dose 5-20 µM
Mus musculus [25] = assay: Anti-obesity activity in high-fat diet fed male DIO C57BL/J mouse model assessed as downregulation of FOXO1 expression level in liver at 40 to 160 mg/kg treated for 9 weeks by RT-qPCR analysis; format: functional, organism-based; conditions: dose 40-160 mg/kg
HepG2 [26] = assay: Downregulation of FOXO1 expression in PA/OA-induced human HepG2 cells at 5 to 20 uM by RT-qPCR analysis; format: functional, cell-based; conditions: dose 5-20 µM
Mus musculus [27] = assay: Anti-obesity activity in high-fat diet fed male DIO C57BL/J mouse model assessed as increase in body temperature around inguinal white adipose tissue (iWAT) at 40 to 160 mg/kg treated for 3 weeks; format: functional, organism-based; conditions: dose 40-160 mg/kg
[28] = target: T1, Alpha-ketoglutarate-dependent dioxygenase FTO; assay: Induction of thermal stabilization of N-terminal His-tagged FTO (31 residues) in human HepG2 cells at 37 to 73 degreeC at 10 uM incubated for 6 hrs by CESTA; format: cell-based
Mus musculus [29] = assay: Anti-obesity activity in high-fat diet fed DIO male C57BL/J mouse model assessed as downregulation of G6PC expression level in liver at 40 to 160 mg/kg treated for 9 weeks by RT-qPCR analysis; format: functional, organism-based; conditions: dose 40-160 mg/kg
HepG2 [30] = assay: Downregulation of FOXO1 level in PA/OA-induced human HepG2 cells at 5 to 20 uM by Western blot analysis; format: functional, cell-based; conditions: dose 5-20 µM
Mus musculus [31] = assay: Anti-obesity activity in high-fat diet fed DIO male C57BL/J mouse model assessed as downregulation of PCK1 level in liver at 40 to 160 mg/kg treated for 9 weeks by Western blot analysis; format: functional, organism-based; conditions: dose 40-160 mg/kg
Mus musculus [32] = assay: Anti-obesity activity in high-fat diet fed DIO male C57BL/J mouse model assessed as upregulation of UCP1 expression in adipose tissue at 40 to 160 mg/kg by RT-qPCR analysis; format: functional, organism-based; conditions: dose 40-160 mg/kg
[33] = target: T1, Alpha-ketoglutarate-dependent dioxygenase FTO; assay: Inhibition of His-tagged FTO (unknown origin) assessed as demethylation of ALKBH5 at 10 to 80 uM; conditions: dose 10-80 µM
HepG2 [34] = assay: Downregulation of G6PC expression in PA/OA-induced human HepG2 cells at 5 to 20 uM by Immunofluorescence staining based confocal microscopic analysis; format: functional, cell-based; conditions: dose 5-20 µM

O=C1C[C@@H](c2ccc(O)c(O)c2)Oc2cc(O)cc(O)c21 [ERIODICTYOL]
Activity (Mus musculus [1]): Active | Activity (HepG2 [2]): Active | Activity (HepG2 [3]): Active | Activity (Mus musculus [4]): Active | Activity (Mus musculus [5]): Active | Activity (Mus musculus [6]): Active | Activity (Mus musculus [7]): Dose-dependent-effect | Activity (Mus musculus [8]): Active | Activity (Mus musculus [9]): Dose-dependent-effect | Activity (Mus musculus [10]): Active | Activity (HepG2 [11]): inactive | Activity (HepG2 [12]): inactive | Activity (HepG2 [13]): Active | Activity (HepG2 [14]): Active | Activity (HepG2 [15]): Active | Activity (Mus musculus [16]): Active | Activity (Mus musculus [17]): Active | Activity (Mus musculus [18]): Active | Activity [19]: Active | Activity (HepG2 [20]): Active | Activity (Mus musculus [21]): Active | Activity (Mus musculus [22]): Active | Activity (Mus musculus [23]): Active | Activity (HepG2 [24]): Active | Activity (Mus musculus [25]): Active | Activity (HepG2 [26]): Active | Activity (Mus musculus [27]): Active | Activity [28]: Active | Activity (Mus musculus [29]): Active | Activity (HepG2 [30]): Active | Activity (Mus musculus [31]): Active | Activity (Mus musculus [32]): Active | Activity [33]: Active | Activity (HepG2 [34]): Active
